Measured values as given in publication PMC5472792, “Bub1 positions Mad1 close to KNL1 MELT repeats to promote checkpoint signalling” (Nature Communications, 2017).

System: GST-Bub1 425–500
Assay: In vitro phosphorylation of GST-Bub1, mass spectrometry
Assay type: biochemical, human
Experimental: To identify mitotic kinases able to phosphorylate Bub1 on Ser459 and Thr461 we performed in vitro phosphorylation assays with candidate kinases. […] However, given the fact that Mps1 phosphorylates the corresponding Thr455 site in budding yeast Bub1 (ref. [37]) we suspected that Mps1 might be the kinase that phosphorylates Thr461. We incubated purified GST-Bub1 encompassing amino acids 425–500 with either purified Cdk1-Cyclin B1 or Mps1 and analysed the samples by mass spectrometry.
A similar set-up was used for analysing the phosphorylated GST-Bub1 except that an EASY-nLC 1200 UHPLC system connected to an Orbitrap Q-Exactive HF was used and the acetonitrile gradient was run for 77 min. The samples were analysed using a ‘fast' acquisition mode with a normalized collision energy (NCE) of 25 and raw data analysed with MaxQuant software suit version 1.5.7.4.
GST- Bub1 (425–500) was expressed in BL21(DE3) cells at 18 °C overnight with 0.5 mM IPTG in the medium. The bacteria were lysed in 50 mM Tris-HCl pH 7.4, 300 mM NaCl, 10% glycerol, 5 mM β-mercaptoethanol, 1 mM PMSF, plus Complete-EDTA free protease inhibitors (Roche) using a high pressure homogenizer. Lysates were cleared by centrifugation and incubated with pre-equilibrated Glutathione-Fast Flow (GE Healthcare) beads for 2 h at 4 °C and eluted with GST-elution buffer at room temperature (50 mM Tris pH 8.8, 300 mM NaCl, 10% glycerol, 5 mM β-mercaptoethanol, 20 mM reduced glutathione). Elutions were pooled and run on Superdex 200 column (GE Healthcare) in PBS with 8.7% glycerol and 5 mM mercaptoethanol. Peak fractions were aliquoted and stored at −80 °C.
Recombinant GST-Bub1 (12 μg) was incubated with 20 units CDK1-CyclinB1 (New England Biolabs), 0,2 μg Mps1 (TTK; Life Technologies) in protein kinase buffer (50 mM Tris pH 7.5, 10 mM MgCl2, 0.1 mM EDTA, 2 mM DTT, 0.01% Brij 35). 500 μM ATP and 125 nM Calyculin A (Cell Signaling) were added and the reactions were incubated at 30 °C for 1 h. […] The band corresponding to GST-Bub1 was cut out and analysed by mass spectrometry.

[1] = GST-Bub1 425-500, 30 °C for 1 h, 500 μM ATP, LC-MS, kinase-free control 0

## Cdk1-Cyclin B1: purified kinase (New England Biolabs) [reference compound]
[1]
  intensity of phospho-peptide 456-VQPS(Phos)PTVHTK (pS459): 5,59E+08
  intensity of phospho-peptide 456-VQPSPT(Phos)VHTK (pT461): 1,89E+08
Ser459 and Thr461, mass spectrometry
  phosphorylation of GST-Bub1 425–500 (in words): phosphorylation of Ser459 and Thr461
